Permeability data for macrocyclic peptides

Data: CycPeptMPDB; original report Furukawa et al. 2016, doi:10.1021/acs.jmedchem.6b01246.

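Conditions beyond the assay type are not listed; see the original paper. Other peptides of the study may be missing here. Entries at the database's floor value (log10 P of -10) are not listed.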

PAMPA measures passive passage through an artificial lipid membrane. Permeability is in 10^-6 cm/s, converted from the database's log10 values; higher is more permeable.

CCCC[C@@H]1NC(=O)[C@H](CC(C)C)N(C)C(=O)CN(CCOc2ccccc2)C(=O)[C@H](C)NC(=O)CN(Cc2cc(CC(C)C)on2)C(=O)[C@H]2CCCN2C1=O is reported with PAMPA 2.6 × 10^-6 cm/s.
CCCC[C@@H]1NC(=O)[C@H](CC(C)C)N(C)C(=O)CN(CCCc2cnn(C)c2)C(=O)[C@H](Cc2ccc3ccccc3c2)NC(=O)CN(Cc2cc(CC(C)C)on2)C(=O)[C@H]2CCCN2C1=O is reported with PAMPA 0.14 × 10^-6 cm/s.
CCCC[C@@H]1NC(=O)[C@H](CC(C)C)N(C)C(=O)CN(CCOC)C(=O)[C@H](C)NC(=O)CN(CCN2CCOCC2)C(=O)[C@H]2CCCN2C1=O is reported with PAMPA 0.0076 × 10^-6 cm/s.
CCCC[C@@H]1NC(=O)[C@H](CC(C)C)N(C)C(=O)CN(Cc2ccccc2)C(=O)[C@H](CC(C)C)NC(=O)CN(CC(C)C)C(=O)[C@H]2CCCN2C1=O is reported with PAMPA 3.6 × 10^-6 cm/s.
CCCC[C@@H]1NC(=O)[C@H](CC(C)C)N(C)C(=O)CN(CCCc2ccccc2)C(=O)[C@H](CC(C)C)NC(=O)CN(CCCOC(C)C)C(=O)[C@H]2CCCN2C1=O is reported with PAMPA 2.5 × 10^-6 cm/s.
CCCC[C@@H]1NC(=O)[C@H](CC(C)C)N(C)C(=O)CN(CCOc2ccccc2)C(=O)[C@H](C)NC(=O)CN(CCN2CCOCC2)C(=O)[C@H]2CCCN2C1=O is reported with PAMPA 0.62 × 10^-6 cm/s.
CCCC[C@@H]1NC(=O)[C@H](CC(C)C)N(C)C(=O)CN(CCCc2cnn(C)c2)C(=O)[C@H](CC(C)C)NC(=O)CN(CC)C(=O)[C@H]2CCCN2C1=O is reported with PAMPA 1 × 10^-6 cm/s.
CCCCCN1CC(=O)N(C)[C@@H](CC(C)C)C(=O)N[C@@H](CCCC)C(=O)N2CCC[C@@H]2C(=O)N(Cc2cc(CC(C)C)on2)CC(=O)N[C@@H](C)C1=O is reported with PAMPA 10 × 10^-6 cm/s.
CCCC[C@@H]1NC(=O)[C@H](CC(C)C)N(C)C(=O)CN(Cc2ccccc2)C(=O)[C@H](Cc2ccccc2)NC(=O)CN(CC)C(=O)[C@H]2CCCN2C1=O is reported with PAMPA 6.9 × 10^-6 cm/s.
CCCC[C@@H]1NC(=O)[C@H](CC(C)C)N(C)C(=O)CN(CCc2cccnc2)C(=O)[C@H](Cc2ccccc2)NC(=O)CN(CCC)C(=O)[C@H]2CCCN2C1=O is reported with PAMPA 2.6 × 10^-6 cm/s.
CCCC[C@@H]1NC(=O)[C@H](CC(C)C)N(C)C(=O)CN(Cc2ccccc2)C(=O)[C@H](Cc2ccccc2)NC(=O)CN(CC(C)C)C(=O)[C@H]2CCCN2C1=O is reported with PAMPA 0.87 × 10^-6 cm/s.
CCCC[C@@H]1NC(=O)[C@H](CC(C)C)N(C)C(=O)CN(CCCN2CCCC2=O)C(=O)[C@H](Cc2ccccc2)NC(=O)CN(Cc2ccccc2Cn2cccn2)C(=O)[C@H]2CCCN2C1=O is reported with PAMPA 0.98 × 10^-6 cm/s.
CCCC[C@@H]1NC(=O)[C@H](CC(C)C)N(C)C(=O)CN(CCOc2ccccc2)C(=O)[C@H](C)NC(=O)CN(CCC)C(=O)[C@H]2CCCN2C1=O is reported with PAMPA 6 × 10^-6 cm/s.
CCCC[C@@H]1NC(=O)[C@H](CC(C)C)N(C)C(=O)CN(CCCc2ccccc2)C(=O)[C@H](CC(C)C)NC(=O)CN(Cc2ccccc2Cn2cccn2)C(=O)[C@H]2CCCN2C1=O is reported with PAMPA 0.58 × 10^-6 cm/s.
CCCC[C@@H]1NC(=O)[C@H](CC(C)C)N(C)C(=O)CN(CCCc2cnn(C)c2)C(=O)[C@H](Cc2ccc3ccccc3c2)NC(=O)CN(Cc2ccccc2Cn2cccn2)C(=O)[C@H]2CCCN2C1=O is reported with PAMPA 0.26 × 10^-6 cm/s.